The text below walks through data of PubChem BioAssay AID493027 (The Scripps Research Institute Molecular Screening Center, 2011).

Protein sequences, listed by entry. Tags and fused reporters are not part of them. Lines headed by an entry give the natural chain unless they say otherwise; changes in a name come on top.
UniProt O60240: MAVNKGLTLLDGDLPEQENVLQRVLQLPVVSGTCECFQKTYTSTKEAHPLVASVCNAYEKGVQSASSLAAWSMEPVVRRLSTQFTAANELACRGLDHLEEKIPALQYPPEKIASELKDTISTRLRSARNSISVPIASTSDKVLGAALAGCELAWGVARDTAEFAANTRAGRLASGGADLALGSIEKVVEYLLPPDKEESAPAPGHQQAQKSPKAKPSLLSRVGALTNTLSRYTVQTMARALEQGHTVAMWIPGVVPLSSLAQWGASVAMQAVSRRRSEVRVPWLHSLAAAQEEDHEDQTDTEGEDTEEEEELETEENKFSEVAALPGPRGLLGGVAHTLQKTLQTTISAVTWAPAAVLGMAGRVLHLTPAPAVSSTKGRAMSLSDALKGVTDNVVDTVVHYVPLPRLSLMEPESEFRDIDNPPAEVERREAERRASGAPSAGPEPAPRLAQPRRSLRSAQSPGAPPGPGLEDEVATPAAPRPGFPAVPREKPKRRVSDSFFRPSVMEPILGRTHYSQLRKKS
UniProt Q8WTS1: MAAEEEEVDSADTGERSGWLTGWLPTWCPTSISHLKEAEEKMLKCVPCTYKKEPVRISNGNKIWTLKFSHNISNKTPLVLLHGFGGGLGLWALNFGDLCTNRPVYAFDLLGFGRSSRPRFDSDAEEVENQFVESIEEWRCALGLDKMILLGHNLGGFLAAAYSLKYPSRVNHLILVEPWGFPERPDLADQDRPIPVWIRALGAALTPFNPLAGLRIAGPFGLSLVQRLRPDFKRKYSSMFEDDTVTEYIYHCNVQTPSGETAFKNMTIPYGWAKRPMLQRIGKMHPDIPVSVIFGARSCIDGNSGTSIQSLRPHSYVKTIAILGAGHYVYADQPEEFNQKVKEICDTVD

The entries are a selection whose mix differs from that of the whole data set. Active and inactive are the calls of the source.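 How the source made its calls: active means inhibition above the screen-wide mean inhibition plus 3 SD (cut at about 44% in these data); inactive means the rest.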

The target of the test is Perilipin-1 (Homo sapiens) + 1-acylglycerol-3-phosphate O-acyltransferase ABHD5 (Homo sapiens) (UniProt O60240+Q8WTS1). The experiment in a line: ABHD5-PLIN1 interaction inhibitors, pilot screen, cell lysate, split luciferase complementation, luminescence, NIH validation set (AID 493027).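 Further: 0% = DMSO wells with the 100% control not disclosed.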 Conditions: split G. princeps luciferase complementation, 4 h, at 7.9 µM, hits give high values.
The inhibition is the change of the read-out against control, counted positive when it falls. In the case of `CN(C(=O)Cc1ccc(Cl)c(Cl)c1)[C@@H]1CCCC[C@H]1N1CCCC1`, the inhibition is inactive: -11.6%.
